The list shows a part of the results, in another mix than the full data. Inconclusive results are not listed. Entries that show only a call come without a potency. The source made the active and inactive calls. The call rests on the fitted dose curve; in most records, active means well fitted inhibition curve with a large enough effect; inconclusive means small, poorly fitted or top-dose-only effect; inactive means no such curve, though single readings can be large or run the other way.
Potency means the concentration at half of the fitted maximal effect.

Amino acid sequences for entries named in this document (tags omitted).
UniProt Q99714, whole entry: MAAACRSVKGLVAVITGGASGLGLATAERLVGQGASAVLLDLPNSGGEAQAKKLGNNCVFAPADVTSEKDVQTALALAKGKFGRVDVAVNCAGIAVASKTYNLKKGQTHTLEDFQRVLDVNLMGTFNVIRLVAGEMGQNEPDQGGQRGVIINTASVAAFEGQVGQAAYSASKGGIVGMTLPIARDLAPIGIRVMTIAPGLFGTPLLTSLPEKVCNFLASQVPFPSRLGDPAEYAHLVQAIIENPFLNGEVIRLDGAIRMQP

The test has as its target 3-hydroxyacyl-CoA dehydrogenase type-2 (Homo sapiens) (UniProt Q99714). The test can be described thus: qHTS Assay for Inhibitors of HADH2 (Hydroxyacyl-Coenzyme A Dehydrogenase, Type II). Further: nearly all actives have a fitted effect of over 60% in size. The conditions noted are these: recombinant HADH2, NADH fluorescence, beta-hydroxybutyryl-CoA; series mostly up to 57.1 µM.
Regarding `CCOP(C)(=S)SCC(=O)NC(C)C(=O)O` (stereo unspecified), the activity change, negative = inhibition result is “inactive”.

For the compound `CP(=O)(NC(=O)Nc1ccccc1)Oc1ccccc1` (stereo unspecified), the activity change, negative = inhibition entry was “inactive”.

Turning to `N1=C(c2nnc(-c3nn[nH]n3)nn2)NNN1`, the activity change, negative = inhibition was inactive: 7.27% [at 11.4 µM].

For `Cc1ccc(NP(C)(=O)Oc2ccccc2)c(C)c1` (stereo unspecified), the activity change, negative = inhibition entry was “inactive”.

Take `COc1ccccc1OP(C)(=O)Nc1ccc(C)cc1` (stereo unspecified): the activity change, negative = inhibition entry is “inactive”.

For the compound `O=[N+]([O-])[O-].[NH4+]`, the activity change, negative = inhibition entry was “inactive”.

For `Cc1ccc(C)c(NP(C)(=O)Oc2ccccc2)c1` (stereo unspecified), the activity change, negative = inhibition result is “inactive”.

On to `Cc1ccc([N+](=O)[O-])cc1[N+](=O)[O-]`, for which the activity change, negative = inhibition entry is “inactive”.

As for `O=[N+]([O-])c1cccc([N+](=O)[O-])c1`, the activity change, negative = inhibition result is “inactive”.

For `Cc1nc2ccc3ccccc3c2s1.O=[N+]([O-])c1cc([N+](=O)[O-])c(O)c([N+](=O)[O-])c1`, the activity change, negative = inhibition result was “inactive”.

`CP(=O)(Nc1ccc2c(c1)OCCO2)Oc1ccccc1` (stereo unspecified): the activity change, negative = inhibition entry is “inactive”.

Regarding `[NH4+].[O-][Cl+3]([O-])([O-])[O-]`, the activity change, negative = inhibition result is “inactive”.

On to `Cc1ccccc1NP(C)(=O)Nc1ccccc1C`, for which the activity change, negative = inhibition entry is “inactive”.

Take `CCOP(=O)(CC)OCC`: the activity change, negative = inhibition result is “inactive”.

Turning to `CCOP(C)(=S)SCC(=O)NC(C)(CC)C(=O)O` (stereo unspecified), the activity change, negative = inhibition result was “inactive”.

As for `Cc1c([N+](=O)[O-])cccc1[N+](=O)[O-]`, the activity change, negative = inhibition entry is “inactive”.

Consider `Cc1ccc([N+](=O)[O-])c([N+](=O)[O-])c1`, for which the activity change, negative = inhibition result was “inactive”.

Take `CN(C)CCOC(=O)C(O)(c1ccccc1)C1CCCCC1` (stereo unspecified): the activity change, negative = inhibition entry was “inactive”.

Regarding `Cc1cccc([N+](=O)[O-])c1[N+](=O)[O-]`, the activity change, negative = inhibition entry was “inactive”.

Take `CCC(C)(OO)OOC(C)(CC)OO` (stereo unspecified): the activity change, negative = inhibition entry was “inactive”.

`CP(=O)(Nc1ccccc1F)Oc1ccccc1` (stereo unspecified): the activity change, negative = inhibition result is “inactive”.

In the case of `CP(=O)(Nc1ccccn1)Oc1ccccc1` (stereo unspecified), the activity change, negative = inhibition entry is “inactive”.

With `COc1ccccc1OP(C)(=O)Nc1ccc(C)c(C)c1` (stereo unspecified), the activity change, negative = inhibition result is “inactive”.

`N#[O+].[C-]#N.[C-]#N.[C-]#N.[C-]#N.[C-]#N.[Fe+2].[Na+].[Na+]`: the Potency was active: 10 µM.

For the compound `CP(=O)(Oc1ccccc1)N1CCOC1=O` (stereo unspecified), the activity change, negative = inhibition result was “inactive”.

As to `COc1ccccc1OP(C)(=O)Nc1c(C)n(C)n(-c2ccccc2)c1=O` (stereo unspecified), the activity change, negative = inhibition entry was “inactive”.

The record behind these values is PubChem BioAssay AID886 (National Center for Advancing Translational Sciences (NCATS), 2007).
